Experimental findings from article PMC7723054 are described below.

Common to all, as to test: FOREST: bead pull-down of RNA structure library v1, barcode microarray; U1A/LIN28A: 20 mM HEPES pH 7.5, 80 mM KCl, 20 mM NaCl, 10% glycerol, 2 mM DTT, 0.1 ug/uL BSA, 4 C; BG4/CIRBP/DHX36: 10 mM Tris-HCl pH 7.5, 100 mM KCl (or LiCl),; high values mean tight binding
One assay has as its target U1A (Homo sapiens, UniProt P09012).
The next assay has as its target T1, LIN28A (human?, UniProt Q9H9Z2 1-209).
T1 sequence: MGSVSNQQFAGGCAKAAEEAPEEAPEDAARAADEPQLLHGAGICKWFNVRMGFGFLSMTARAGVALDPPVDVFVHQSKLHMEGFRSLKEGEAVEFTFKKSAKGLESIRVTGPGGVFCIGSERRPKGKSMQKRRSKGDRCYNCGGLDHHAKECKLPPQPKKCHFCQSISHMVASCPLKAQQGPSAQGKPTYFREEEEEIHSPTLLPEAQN

The target of another assay is T2, CIRBP (Homo sapiens, UniProt Q14011 1-172).
T2 sequence: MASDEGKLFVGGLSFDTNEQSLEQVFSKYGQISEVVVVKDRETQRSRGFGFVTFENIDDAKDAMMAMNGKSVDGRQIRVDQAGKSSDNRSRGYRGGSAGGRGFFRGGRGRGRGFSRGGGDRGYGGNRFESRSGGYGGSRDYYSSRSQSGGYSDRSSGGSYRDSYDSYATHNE

Another assay concerns the target T3, DHX36 (Homo sapiens, UniProt Q9H2U1 1-1008).
T3 sequence: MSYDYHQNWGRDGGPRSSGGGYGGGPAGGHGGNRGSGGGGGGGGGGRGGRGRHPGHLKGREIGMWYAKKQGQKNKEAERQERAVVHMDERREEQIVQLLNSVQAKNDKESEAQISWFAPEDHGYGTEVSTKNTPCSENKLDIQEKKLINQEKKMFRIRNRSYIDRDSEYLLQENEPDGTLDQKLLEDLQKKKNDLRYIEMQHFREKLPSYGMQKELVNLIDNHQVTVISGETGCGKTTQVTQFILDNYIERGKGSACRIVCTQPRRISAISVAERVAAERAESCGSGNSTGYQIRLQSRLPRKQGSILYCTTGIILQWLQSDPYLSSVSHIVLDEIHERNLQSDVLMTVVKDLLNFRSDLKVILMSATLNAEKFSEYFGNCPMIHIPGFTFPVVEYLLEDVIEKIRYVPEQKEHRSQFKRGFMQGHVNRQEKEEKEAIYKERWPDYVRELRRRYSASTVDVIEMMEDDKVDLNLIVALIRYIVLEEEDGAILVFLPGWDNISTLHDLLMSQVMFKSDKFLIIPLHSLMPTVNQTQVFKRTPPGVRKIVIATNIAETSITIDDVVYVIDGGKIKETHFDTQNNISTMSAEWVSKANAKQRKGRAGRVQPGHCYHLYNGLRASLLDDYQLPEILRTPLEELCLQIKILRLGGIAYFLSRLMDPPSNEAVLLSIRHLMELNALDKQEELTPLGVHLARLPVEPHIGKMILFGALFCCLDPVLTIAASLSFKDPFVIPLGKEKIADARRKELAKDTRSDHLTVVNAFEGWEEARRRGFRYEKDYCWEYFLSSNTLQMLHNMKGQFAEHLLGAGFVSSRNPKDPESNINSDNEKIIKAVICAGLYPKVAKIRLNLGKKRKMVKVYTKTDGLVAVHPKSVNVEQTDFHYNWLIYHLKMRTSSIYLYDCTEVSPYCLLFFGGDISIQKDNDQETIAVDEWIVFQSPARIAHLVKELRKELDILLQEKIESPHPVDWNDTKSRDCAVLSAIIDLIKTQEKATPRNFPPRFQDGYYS

The list shows a part of the results.

B1: hsa-mir-3190 (structured_RNA)
RNA: GGGAAACUGUAGAACGAGUUAAACCGCUGGUGUACGAAGUUUCAGCCCCACGGCCCUUGUCAGUGUGGCUGAAGCUUCGUGCAC
As to B1, the binding signal in the assay with U1A is 0.886 z-score; in the assay with LIN28A it was -0.0294 z-score; with CIRBP, -0.912 z-score; with DHX36 it was -0.176 z-score.

B2: hsa-mir-4789 (structured_RNA)
RNA: GGGAAUAGUCUUGAAUGCUGGCCCGAAAGGUGUACGAAGUUUCAGCUGUAUGUGUAAAUACAUAUCCACACAGCUGAAGCUUCGUGCAC
On to B2, for which the binding signal with U1A is 0.891 z-score; with LIN28A it was 0.293 z-score; with CIRBP it was 0.325 z-score; with DHX36, -0.516 z-score.

B3: PARIS_ID8 (structured_RNA)
RNA: GGGAAAUAUCCAGACGGCACGACACACGGGUGUACGAAGUUUCAGCGGGCUGUGGAGUGUAUGAAUUUAUAAAUCACUGGUCUGCUGAAGCUUCGUGCAC
With B3, the binding signal in the assay with U1A is 0.881 z-score; with LIN28A, 0.07 z-score; with CIRBP it was -0.218 z-score; with DHX36, -0.628 z-score.

B4: hsa-mir-153-1 (structured_RNA)
RNA: GGGAAAGGGGCUCACCAAUUCACGCAAUGGUGUACGAAGUUUCAGCGCAGCUAGUAUUCUCACUCCAGUUGCGCUGAAGCUUCGUGCAC
For B4, the binding signal with U1A was 0.885 z-score; with LIN28A, -1.77 z-score; with CIRBP, -0.056 z-score; with DHX36, -0.759 z-score.

B5: hsa-mir-8485 (structured_RNA)
RNA: GGGAAGCUUUUCGAAACUUGGAUGUGGCGGUGUACGAAGUUUCAGCUGUAUAUAGCAUAUGUGUAUACAUACACACACACACACACACACACACAGCUGAAGCUUCGUGCAC
For B5, the binding signal in the assay with U1A worked out at 2.39 z-score; with LIN28A it was 1.09 z-score; with CIRBP it was 0.263 z-score; in the assay with DHX36 it was 1.18 z-score.

B6: hsa-mir-3140 (structured_RNA)
RNA: GGGCCACGGACAAAACAGAGCCUCAGUCGGUGUACGAAGUUUCAGCAGCUUUAUGUAUUCUGAAGUUAUUGAAAAUAAGAGCUGCUGAAGCUUCGUGCAC
Take B6: the binding signal with U1A was 0.869 z-score; with LIN28A, 0.953 z-score; in the assay with CIRBP, 0.577 z-score; with DHX36, 0.44 z-score.

B7: hsa-mir-548o (structured_RNA)
RNA: GGGAAGGGCUGGCAUCCAACGGAAUUACGGUGUACGAAGUUUCAGCAUGGUUCCUAUUCUGAUCAAUAAACAUGGUUUGAGCCUAGUUACAAUGAUCUAAAAUUCACGGUCCAAGCUGAAGCUUCGUGCAC
Regarding B7, the binding signal in the assay with U1A stood at 0.865 z-score; with LIN28A, 0.613 z-score; in the assay with CIRBP, 0.582 z-score; with DHX36 it was 0.855 z-score.

B8: hsa-mir-3181 (structured_RNA)
RNA: GGGAAGUCAGGGAUUAUAUCGAAAGCACGGUGUACGAAGUUUCAGCCCGGCCCGUUAGUUGCCCGGGCCCGGCUGAAGCUUCGUGCAC
For the molecule B8, the binding signal with U1A came out at 0.874 z-score; in the assay with LIN28A it was 0.801 z-score; with CIRBP, 0.825 z-score; with DHX36 it was 0.485 z-score.

B9: hsa-mir-1294 (structured_RNA)
RNA: GGGCACACACCAAUAGGGGUACAGCAACGGUGUACGAAGUUUCAGCGUCUGGCAUUGUCUGAUAUACGCUGAAGCUUCGUGCAC
Take B9: the binding signal with U1A was 0.885 z-score; with LIN28A it was -0.397 z-score; with CIRBP it was -0.877 z-score; with DHX36, 0.14 z-score.

B10: hsa-mir-6810 (structured_RNA)
RNA: GGGAAACCAUGCACUAGAUCAUAGGACUGGUGUACGAAGUUUCAGCUGGCACAGAUCCAAUACCUUCUGUCCCCGCUGAAGCUUCGUGCAC
Consider B10, for which the binding signal in the assay with U1A is 0.873 z-score; with LIN28A, 0.242 z-score; in the assay with CIRBP, 0.431 z-score; in the assay with DHX36 it was -0.239 z-score.

B11: hsa-mir-373 (structured_RNA)
RNA: GGGACCGUCUAAGUCCGCAAUGUCCGAGGGUGUACGAAGUUUCAGCCUUUCCUUUUUGUCUGUACUGGGAAGGCUGAAGCUUCGUGCAC
B11: the binding signal is 0.876 z-score in the assay with U1A, 0.64 z-score with LIN28A, 0.0694 z-score with CIRBP and 0.075 z-score in the assay with DHX36.

B12: hsa-mir-3689f (structured_RNA)
RNA: GGGAAGGGAACUCACAAUCUGUACGAAUGGUGUACGAAGUUUCAGCGGGACGUGUGAUGCUGUGCUUCCUGCUGAAGCUUCGUGCAC
Regarding B12, the binding signal was 0.867 z-score with U1A, 0.773 z-score in the assay with LIN28A, 1.13 z-score with CIRBP and 0.883 z-score with DHX36.
